{
  "source": "patent US6685915B2",
  "about": "“Extended-linear polymeric contrast agents, and synthesizing methods, for medical imaging” (General Electric Company, priority 1999, dated 2004)",
  "origin": "cited, not measured here",
  "details": "in vivo; cited from earlier work",
  "data": [
    {"substance": "albumin—Gd-DTPA", "values": [
      {"measurement": "immune reactions and toxicity when injected", "value": "substantial toxicities"}
    ]}
  ]
}
